Measured values taken from PubChem BioAssay AID492967 (ICCB-Longwood Screening Facility, Harvard Medical School, 2010).
Only a part is listed here, and it is no random draw. Some tests of the compounds listed are not included; inactive here does not mean inactive elsewhere. Active and inactive are the calls of the source. Rule as the data show it: active = z-score mostly below about -2.9 (no sharp cut-off); inactive = mostly above about -1.9.

These compounds were tested on CapD gamma-glutamyltranspeptidase (Bacillus anthracis Ames Ancestor) (assay: inhibition of CapD gamma-glutamyltranspeptidase – biochemical, fluorescence intensity, primary screen (AID 492967)). Conditions: purified CapD enzyme, fluorescence intensity read-out; active compounds read low.
`COc1ccc(OC)c(C=C(C#N)C#N)c1` was tested, and the z-score was inactive: 0.225.
In the case of `O=C(OC1CN2CCC1CC2)C(CO)(c1ccccc1)c1ccccc1` (configuration not stated), the z-score is reported as inactive: 0.21.
